The entries are a selection whose mix differs from that of the whole data set. Activity calls are given as the source filed them.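 Rule for the calls: active = mean luciferase reporter signal, scaled so untreated is 0 and the glycosylation-blocking control 100, at or above a set limit in every replicate; inconclusive = mean reaches the limit but not every replicate does; inactive = mean below the limit.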
assay: increase of ERlucT glycosylation luciferase signal, primary screen, N-linked glycosylation inhibitor project, D54 ERlucT cells, luminescence, set 2 (AID 588692); details: 24 h, at 12.5 µM, active compounds read high, percent of 100 nM tunicamycin response;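 note: luciferase carries N-glycosylation sites so blocking glycosylation raises the light; 0% = median of neutral control wells and 100% = median of 100 nM tunicamycin wells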

Row | SMILES | reporter increase
1 | CCC(=O)N(c1ccccc1)C1(COC)CCN(CCn2nnn(CC)c2=O)CC1 | inactive: -0.277%
2 | CCC(=O)N(c1ccccc1)C1(COC)CCN(CCc2cccs2)CC1 | inactive: -7.23%
